Key:
p-glycoprotein [1] = target: T1, p-glycoprotein (Homo sapiens, UniProt P08183); assay: Rhodamine 123 accumulation assay with efflux inhibitors in monocultured IMR90-4-derived BMECs; conditions: monoculture; 10 μM rhodamine 123, 1 h; 5 μM cyclosporin A, 1 μM Ko143 or 10 μM MK 571; normalized to no inhibitor
p-glycoprotein [2] = target: T1, p-glycoprotein; assay: Apical-to-basolateral transport of rhodamine 123 with efflux inhibitors, IMR90-4-derived BMEC/astrocyte model; conditions: astrocyte co-culture; 60 min; normalized to no inhibitor
[3] = system: BBB influx and efflux transporters (GLUT-1, MDR1, BCRP, MRP family, organic cation transporters); conditions: efflux transporter inhibitors (Table 6); cited from earlier work
[4] = system: p-glycoprotein, BCRP, and the MRP family; assay: Doxorubicin accumulation assay with efflux inhibitors in monocultured IMR90-4-derived BMECs; conditions: monoculture; doxorubicin 0.25 μCi, 1 h; 5 μM cyclosporin A, 1 μM Ko143 or 10 μM MK 571
[5] = system: p-glycoprotein, BCRP and MRP family efflux transporters; assay: Apical-to-basolateral transport of doxorubicin with efflux inhibitors, IMR90-4-derived BMEC/astrocyte model; assay type: in vitro ADME, human; conditions: astrocyte co-culture; 60 min; normalized to no inhibitor

The chains behind the UniProt entries cited, without tags or fusion partners.
UniProt P08183, whole entry: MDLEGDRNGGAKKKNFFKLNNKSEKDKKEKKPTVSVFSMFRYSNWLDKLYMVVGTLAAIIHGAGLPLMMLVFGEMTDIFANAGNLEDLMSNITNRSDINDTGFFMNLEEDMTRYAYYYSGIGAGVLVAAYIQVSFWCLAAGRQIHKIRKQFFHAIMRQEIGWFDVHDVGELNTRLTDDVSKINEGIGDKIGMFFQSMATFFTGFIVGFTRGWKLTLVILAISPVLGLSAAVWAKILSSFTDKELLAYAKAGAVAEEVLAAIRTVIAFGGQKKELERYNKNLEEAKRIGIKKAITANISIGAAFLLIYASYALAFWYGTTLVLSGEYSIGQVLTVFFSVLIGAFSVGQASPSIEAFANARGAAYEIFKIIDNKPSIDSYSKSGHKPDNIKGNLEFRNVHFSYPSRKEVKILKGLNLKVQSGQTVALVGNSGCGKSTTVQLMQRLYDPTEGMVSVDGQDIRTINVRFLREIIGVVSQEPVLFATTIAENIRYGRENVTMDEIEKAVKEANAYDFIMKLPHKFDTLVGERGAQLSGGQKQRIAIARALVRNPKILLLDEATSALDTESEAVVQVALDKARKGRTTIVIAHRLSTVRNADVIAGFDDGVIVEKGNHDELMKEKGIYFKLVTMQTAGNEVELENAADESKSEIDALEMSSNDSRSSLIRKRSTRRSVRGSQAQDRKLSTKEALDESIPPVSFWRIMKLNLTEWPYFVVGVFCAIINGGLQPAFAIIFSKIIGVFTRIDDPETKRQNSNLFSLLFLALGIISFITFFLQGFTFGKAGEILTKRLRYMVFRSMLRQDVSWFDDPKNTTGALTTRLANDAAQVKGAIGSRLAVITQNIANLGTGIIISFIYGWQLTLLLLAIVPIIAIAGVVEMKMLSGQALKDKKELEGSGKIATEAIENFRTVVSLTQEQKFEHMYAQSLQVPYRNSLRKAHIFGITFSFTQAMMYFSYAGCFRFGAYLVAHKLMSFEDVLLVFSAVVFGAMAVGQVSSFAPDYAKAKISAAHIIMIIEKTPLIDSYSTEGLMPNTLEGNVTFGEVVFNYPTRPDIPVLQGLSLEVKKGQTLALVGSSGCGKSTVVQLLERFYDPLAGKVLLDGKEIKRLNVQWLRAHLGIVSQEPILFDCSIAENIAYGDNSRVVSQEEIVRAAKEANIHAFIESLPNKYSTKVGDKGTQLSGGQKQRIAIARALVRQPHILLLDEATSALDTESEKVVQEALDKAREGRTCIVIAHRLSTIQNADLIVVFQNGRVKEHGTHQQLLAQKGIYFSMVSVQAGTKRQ

Row | SMILES | increase in cellular accumulation of rhodamine 123 in the presence of inhibitor (p-glycoprotein [1]) | transport of rhodamine 123 from the apical to basolateral chamber in the presence of inhibitor (p-glycoprotein [2]) | Transporter recognition [3] | accumulation of doxorubicin in the presence of inhibitor [4] | transport of doxorubicin from the apical to basolateral chamber in the presence of inhibitor [5] [fold]
1 | COc1ccc2c3c([nH]c2c1)[C@H](CC(C)C)N1C(=O)[C@H](CCC(=O)OC(C)(C)C)NC(=O)[C@@H]1C3 [Ko143] | not | not |  |  | 
2 | CN(C)C(=O)CCSC(SCCC(=O)O)c1cccc(/C=C/c2ccc3ccc(Cl)cc3n2)c1 (centres unmarked) [MK 571] |  |  | MRP family | increased | 1.17
